This is one part of the list.
tested on: A. baumannii ATCC 17978; test: relative growth (fraction of control); higher = less inhibition; conditions: 50 µM

Row | Compound | relative growth
1 | CC(=O)c1cc2c(cc1O)OC(C)(C)C=C2 | 1.1
2 | CCC(CCC(C)[C@H]1CCC2C3CC=C4C[C@@H](OC(C)=O)CC[C@]4(C)C3CC[C@@]21C)C(C)C (some centres undefined) | 1.15
3 | O=C(O)[C@@H]1CCCN1 | 0.929
4 | C#C[C@]1(O)CCC2C3CCC4=CC(=O)CC[C@@H]4C3CC[C@@]21C (some centres undefined) | 1.07
5 | COC(=O)[C@H]1CCCNC1=O | 1.1
6 | O=C(C[C@H]1CC[C@H]2[C@@H](COC[C@@H](O)CN2C(=O)C2CC2)O1)NCc1ccncc1 | 1.02
7 | COc1ccc(-c2coc3cc(OC)ccc3c2=O)c(O)c1 | 0.972
8 | C=CCn1c(=O)c2c(nc(NCCO)n2C)n(C)c1=O | 0.92
9 | O=C(C[C@H]1C=C[C@H](NC(=O)c2cccc(F)c2)[C@H](CO)O1)NCCN1CCCC1 | 1.1
10 | COc1ccc(S(=O)(=O)N(C)C[C@@H]2Oc3c(NC(=O)Nc4cccc5ccccc45)cccc3C(=O)N([C@@H](C)CO)C[C@@H]2C)cc1 | 0.961
11 | Nc1nc(=O)c2ncn(CCC(CO)CO)c2[nH]1 | 1
12 | CNC(=O)Cn1cc2c(n1)CC[C@H](C)C2 | 0.97
13 | C=CCOC(=O)[C@H]1[C@@H]2C(=O)O[C@@H](c3ccccc3)[C@@H](c3ccccc3)N2[C@@H](c2ccc(OCCOC(=O)[C@@H]3C[C@@H]4C(=O)NCC(=O)N4[C@@H]3c3cccc(OCCO)c3)cc2)[C@]12C(=O)Nc1ccc(I)cc12 | 1.01
14 | COc1ccc(-c2cc(=O)c3c(O)cc(O[C@@H]4O[C@H](CO[C@@H]5O[C@@H](C)[C@H](O)[C@@H](O)[C@H]5O)[C@@H](O)[C@H](O)[C@H]4O)cc3o2)cc1O | 0.964
15 | N=C(NO)c1ccccc1N | 0.909
16 | COc1cccc(S(=O)(=O)N2C[C@@H](O)COC[C@@H]3O[C@H](CC(=O)N4CCOCC4)CC[C@H]32)c1 | 0.903
17 | CC1(C)S[C@@H]2[C@H](NC(=O)[C@H](N)c3ccccc3)C(=O)N2[C@H]1C(=O)[O-].[Na+] | 1.13
18 | CC(=O)OC(C)C[N+](C)(C)C.[Cl-] (centres undefined) | 1.21
19 | Cn1cnc(S(=O)(=O)N[C@H]2C=C[C@@H](CC(=O)Nc3ccccc3)O[C@H]2CO)c1 | 0.981
20 | CC[C@@H](Sc1n[nH]c(=O)[nH]c1=O)C(=O)O | 0.854
21 | CO[C@H]1CN(C)C(=O)c2ccc(NS(=O)(=O)CC(F)(F)F)cc2OC[C@@H](C)N(Cc2nccs2)C[C@@H]1C | 0.989

Row | Compound | relative growth
22 | C/C=N/N(C)C=O | 0.972
23 | Nc1ccc(-c2nn[nH]n2)cc1F | 0.894
24 | Cc1ccc(/C=N/c2ccccc2Sc2c(C)n[nH]c2C)cc1 | 0.982
25 | Cn1c(=O)cc(N2CCC[C@@H](N)C2)n(Cc2ccccc2C#N)c1=O | 1.01
26 | CO[C@@H]1CN(C)C(=O)c2cc(NS(=O)(=O)CC(F)(F)F)ccc2OC[C@@H](C)N(Cc2ccccn2)C[C@@H]1C | 1.05
27 | CC(=C/C(=O)O)/C=C/c1ccccc1 | 0.9
28 | COc1ccccc1-c1ccc2c(c1)O[C@@H](CN(C)S(=O)(=O)c1ccccc1)[C@@H](C)CN([C@H](C)CO)S2(=O)=O | 1.19
29 | C=CCC[C@@H](Cc1ccc(F)cc1)C(=O)OC[C@@H](Cc1c[nH]c2ccccc12)NC(=O)[C@H](CC=C)CC(=O)N[C@@H](CO)Cc1ccccc1 | 1.01
30 | NC[C@H]1O[C@H](O[C@H]2[C@H](O)[C@@H](O[C@H]3O[C@H](CO)[C@@H](O)[C@H](N)[C@H]3O)[C@H](N)C[C@@H]2N)[C@H](N)C[C@@H]1O | 0.148
31 | CC(C)c1onc(-c2c(Cl)cccc2Cl)c1COc1ccc(C=Cc2cccc(C(=O)O)c2)c(Cl)c1 | 1.81
32 | Cn1cc(S(=O)(=O)Nc2ccc3c(c2)OCCO3)c(=O)n(C)c1=O | 0.909
33 | Cc1cc(C2CCCCC2)n(O)c(=O)c1.NCCO | 0.157
34 | C[C@]12CCC3c4ccc(O)cc4CCC3C1C[C@@H](O)[C@@H]2O (some centres undefined) | 0.946
35 | C=C1C[C@]23C[C@@]1(O)CC[C@H]2[C@@]12C=C[C@H](O)[C@@](C)(C(=O)O1)[C@H]2[C@@H]3C(=O)O | 1.15
36 | C=CCC[C@@H](Cc1ccc(F)cc1)C(=O)OC[C@@H]1CCCN1C(=O)[C@@H](CC=C)CC(=O)N(CCO)Cc1ccccc1 | 0.822
37 | Cc1ccc(NC(=O)C[C@H]2NCCNC2=O)cc1 | 1.15
38 | Cc1onc(-c2ccccc2)c1C(=O)NC1C(=O)N2[C@@H]1SC(C)(C)[C@@H]2C(=O)[O-].[Na+] (some centres undefined) | 0.924
39 | O=C(C[C@@H]1C=C[C@@H](NS(=O)(=O)c2ccc(F)cc2)[C@@H](CO)O1)NCCN1CCCCC1 | 1.02
40 | O=c1cccc(/C=C/c2ccc3c(c2)OCO3)o1 [6-(3,4-METHYLENEDIOXYSTYRYL)-alpha-PYRONE] | 0.91
41 | COc1ccc([Si](C)(C)[C@H]2[C@H](CC(=O)N3Cc4ccccc4C[C@H]3CO)O[C@@]3(C(=O)N(C)c4c(Br)cc(C)cc43)[C@@H]2C)cc1 | 1.07
42 | COc1ccc(-c2cnc3c(c2)C(=O)N([C@H](C)CO)C[C@H](C)[C@@H](CN(C)S(=O)(=O)c2ccc(OC)cc2)O3)cc1 | 0.99

Row | Compound | relative growth
43 | c1ccc2[nH]c(-c3cscn3)nc2c1 | 0.886
44 | CC(=O)O[C@@H]1C[C@@]23C[C@@]24CC[C@H](O[C@@H]2OC[C@@H](O)[C@H](O)[C@H]2O)C(C)(C)C4CCC3[C@]2(C)C[C@@H]3OC4(C[C@@H](C)[C@@H]3[C@@]12C)O[C@H](O)[C@]1(C)O[C@H]41 (some centres undefined) | 0.834
45 | O=C(O)c1ccc(Nc2cn[nH]c(=O)n2)cc1O | 1.04
46 | C[C@H](CO)N1C[C@H](C)[C@@H](CN(C)C(=O)Cc2ccncc2)Oc2cc(C#CC3CCCC3)ccc2S1(=O)=O | 0.814
47 | COc1ccccc1CNC(=O)C[C@@H]1C[C@H]2c3cc(NC(=O)Nc4ccc(C(F)(F)F)cc4)ccc3O[C@H]2[C@H](CO)O1 | 0.975
48 | CCCNC(=O)Nc1ccc2c(c1)OC[C@@H](C)N(Cc1ccc(-c3ccccn3)cc1)C[C@@H](C)[C@@H](OC)CN(C)C2=O | 1.15
49 | CCCn1c(=O)c(C#N)cn(C2CC2)c1=O | 0.99
50 | Cn1cnc(S(=O)(=O)N[C@H]2CC[C@H](CC(=O)N3CCN(c4ccccc4)CC3)O[C@@H]2CO)c1 | 1.03
51 | COc1ccc(-c2csc(C(C#N)=C3CCCCC3)n2)cc1 | 1.07
52 | CCOC(=O)Cn1cc(F)c(=O)[nH]c1=O | 1.02
53 | O=C(N/N=C/[C@H](O)[C@@H](O)[C@H](O[C@@H]1O[C@H](CO)[C@H](O)[C@H](O)[C@H]1O)[C@H](O)CO)c1ccccn1 | 1.01
54 | NC(=O)NC(=O)Cc1ccccc1 | 1.01
55 | COC(=O)c1c(CC[C@@H](CO)NC(=O)N[C@H](Cn2cc(C3(O)CCCCC3)nn2)C(C)C)oc(C(C)=O)c1C(=O)OC | 0.877
56 | COc1ccc(C(=O)c2ccc(C)cc2)c(O)c1 | 1.08
57 | O=C(C[C@@H]1CC[C@@H]2[C@H](COC[C@@H](O)CN2C(=O)c2ccncc2)O1)NCc1ccc(-c2ccccc2)cc1 | 1.05
58 | COc1cccc(-c2ccc3c(c2)O[C@@H](CN(C)C(=O)C2CCOCC2)[C@H](C)CN([C@H](C)CO)S3(=O)=O)c1 | 0.892
59 | COc1cc(/C=C/C(=O)N2CCC=CC2=O)cc(OC)c1OC | 0.948
60 | NCc1ccc2cc[nH]c(=O)c2c1 | 0.957
61 | CCn1cc(-c2ccc3ccccc3n2)c(=S)c2ccccc21 | 0.918
62 | COc1ccc(C2C(=O)c3ccccc3C2=O)cc1 | 1.04
63 | Cc1cc2n(c(=O)c1C(N)=O)CCO2 | 1.03

Row | Compound | relative growth
64 | C[C@@H]1CN([C@@H](C)CO)S(=O)(=O)c2ccc(C#CCC3CCCC3)cc2O[C@H]1CN(C)C(=O)c1cnccn1 | 0.67
65 | O=C(C[C@H]1CC[C@@H](NS(=O)(=O)c2ccc(F)cc2)[C@H](CO)O1)N1CCC(Cc2ccccc2)CC1 | 0.881
66 | O=C(CN1CCOCC1)NCC[C@@H]1CC[C@H](NC(=O)c2ccc3c(c2)OCO3)[C@H](CO)O1 | 1.24
67 | CN(C)CCCN1c2ccccc2Sc2ccc(Cl)cc21.Cl | 0.628
68 | CN1C(=O)c2cc(NC(=O)C3CCCC3)ccc2OC[C@@H]2O[C@@H](CC(=O)NCCc3ccncc3)CC[C@@H]21 | 0.987
69 | Cc1ncc([N+](=O)[O-])n1CC(O)CCl (centres undefined) | 1.06
70 | O=C(C1=C[C@H](c2ccc(Br)cc2)C[C@H](OCc2ccc(CO)cc2)O1)N1CCN(Cc2ccccc2)CC1 | 0.956
71 | CCOC(=O)[C@@H](C)n1ncn2cccc2c1=O | 1.04
72 | Cn1c(=O)c2c(ncn2CCCCn2cnc3c2c(=O)n(C)c(=O)n3C)n(C)c1=O | 1.01
73 | C(=N\n1cnnc1)/c1ccccn1 | 1.06
74 | COCCOC(=O)N1C(=O)[C@@]2(c3cc(C#Cc4ccc(OC)cc4)ccc31)[C@H](c1ccccc1OCCO)N1[C@H](c3ccccc3)[C@H](c3ccccc3)OC(=O)[C@H]1[C@@H]2C(=O)N1CCN(c2ncccn2)CC1 | 1.31
75 | COc1cc(OC)c2c(OC)c(-c3ccc4c(c3)OCO4)c(=O)oc2c1 | 0.957
76 | NCc1nnnn1C1CCCCC1 | 1.03
77 | CN1C(C(=O)Nc2ccccn2)=C(O)c2sccc2S1(=O)=O | 0.948
78 | Cc1cccc(NC(=O)CN2C(=O)CNC2=O)c1 | 0.942
79 | Cc1ccc(/C(=C\CN2CCCC2)c2ccccn2)cc1.Cl | 1.11
80 | O=C(NC1CC1)[C@@H]1c2ccccc2C(=O)N(Cc2cc(C(F)(F)F)cc(C(F)(F)F)c2)[C@H]1c1ccc(CO)cc1 | 0.86
81 | CC[C@@]1(O)C(=O)OCc2c1cc1n(c2=O)Cc2cc3c(CN(C)C)c(O)ccc3nc2-1.Cl | 0.925
82 | O=C(C[C@@H]1CC[C@H]2[C@@H](COC[C@@H](O)CN2Cc2cc(F)ccc2F)O1)N[C@H]1CCN(Cc2ccccc2)C1 | 0.995
83 | COc1ccc(S(=O)(=O)N2C[C@@H](O)COC[C@@H]3O[C@@H](CC(=O)NCCCN4CCOCC4)CC[C@H]32)cc1 | 0.893
84 | O=C(CS)NCCCCCNC(=O)[C@H]1C[C@H]2C(=O)NCC(=O)N2[C@H]1c1cccc(OCCO)c1 | 0.841
